Measured values reported in ChEMBL document CHEMBL1121934, “2,3-dihydro and carbocyclic analogues of tryptamines: interaction with serotonin receptors” (J Med Chem, 1982).

By UniProt entry, the sequences of proteins in these tests, tags left out.
UniProt P30994, whole entry: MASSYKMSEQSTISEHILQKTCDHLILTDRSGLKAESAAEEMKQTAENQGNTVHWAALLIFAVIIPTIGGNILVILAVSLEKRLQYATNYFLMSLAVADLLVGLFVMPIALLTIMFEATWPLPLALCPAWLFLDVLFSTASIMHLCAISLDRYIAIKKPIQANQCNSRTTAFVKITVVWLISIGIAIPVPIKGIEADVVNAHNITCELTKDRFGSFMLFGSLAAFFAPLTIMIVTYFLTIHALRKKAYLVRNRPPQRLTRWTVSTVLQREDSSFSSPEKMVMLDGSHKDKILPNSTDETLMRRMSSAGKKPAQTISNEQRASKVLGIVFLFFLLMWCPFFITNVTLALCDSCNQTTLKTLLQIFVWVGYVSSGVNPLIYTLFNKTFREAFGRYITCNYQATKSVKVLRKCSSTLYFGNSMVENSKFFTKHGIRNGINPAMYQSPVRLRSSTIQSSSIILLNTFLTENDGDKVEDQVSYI

Biological target: 5-hydroxytryptamine receptor 2B (Rattus norvegicus, UniProt P30994)
Assay: The binding affinity to 5-hydroxytryptamine 2B receptor of rat fundus
Conditions: read-out: pA2 (converted)
Procedure, shortened: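 Isolated rat stomach fundus strip preparation. After a 1-h equilibration, 5-HT oxalate dose-response curves (9–11 increasing concentrations) were run without and with 4–5 increasing concentrations of test compound. Apparent affinity was expressed as pA2 by Arunlakshana–Schild analysis, with linear regression giving both pA2 and Schild plot slope.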

Compound	Kb [µM]
CN(C)CCc1c[nH]c2ccccc12	1
COc1ccc2[nH]cc(CCN(C)C)c2c1 [MEBUFOTENIN]	0.0832
